Paper PMC7822176, “Pursuing the Complexity of Alzheimer’s Disease: Discovery of Fluoren-9-Amines as Selective Butyrylcholinesterase Inhibitors and N-Methyl-D-Aspartate Receptor Antagonists” (Biomolecules, 2020)

Amino acid sequences for entries named in this document (tags omitted). Residues count along the entry.
UniProt P22303, 32-614: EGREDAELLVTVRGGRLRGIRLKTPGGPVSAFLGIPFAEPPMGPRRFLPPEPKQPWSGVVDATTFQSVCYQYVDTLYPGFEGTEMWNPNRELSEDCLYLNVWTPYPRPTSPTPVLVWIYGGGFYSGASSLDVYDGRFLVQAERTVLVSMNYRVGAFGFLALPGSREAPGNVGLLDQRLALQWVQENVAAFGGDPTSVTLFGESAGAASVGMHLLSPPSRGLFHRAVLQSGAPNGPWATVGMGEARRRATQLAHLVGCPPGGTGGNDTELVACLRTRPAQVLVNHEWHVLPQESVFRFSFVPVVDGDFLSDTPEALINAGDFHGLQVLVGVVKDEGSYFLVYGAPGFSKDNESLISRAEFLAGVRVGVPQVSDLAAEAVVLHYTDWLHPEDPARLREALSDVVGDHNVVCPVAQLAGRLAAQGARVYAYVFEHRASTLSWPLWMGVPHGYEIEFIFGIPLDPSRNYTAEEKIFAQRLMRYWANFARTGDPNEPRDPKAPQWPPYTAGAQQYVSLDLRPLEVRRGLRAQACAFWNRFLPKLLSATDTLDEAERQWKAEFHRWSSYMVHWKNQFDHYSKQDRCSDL

Target: human recombinant AChE (Homo sapiens, UniProt P22303)
Assay: biochemical

| Compound | IC50 [µM] |
| --- | --- |
| Cl.c1ccc2c(c1)-c1ccccc1C2NC1CCCCC1 [Compound 3c, N-Cyclohexyl-9H-fluoren-9-amine hydrochloride] | 14 ± 0.35 |
| CCCCNC1c2ccccc2-c2ccccc21.Cl [Compound 3m, N-Butyl-9H-fluoren-9-amine hydrochloride] | 49.9 ± 3.05 |
